Data published in PubChem BioAssay AID485313 (National Center for Advancing Translational Sciences (NCATS), 2010).
Values joined by “and” are separate entries in the source; they are usually repeats but may differ in a detail not shown here. Equal entries are not always repeated. The list shows a part of the results, in another mix than the full data. Active and inactive are the calls of the source. Calls come from the whole dose curve; as a rule, active = well fitted activation curve with a large enough effect; inconclusive = small, poorly fitted or top-dose-only effect; inactive = no such curve, though single readings can be large or run the other way.

Test: qHTS Assay for NPC1 Promoter Activators;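 note: reporter is driven by a mutant NPC1 promoter; % of control where 0% means no effect; nearly all actives have a fitted effect of over 60% in size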
Details: Huh7 NPC1 promoter luciferase reporter, 24 h; at 9.22 µM (top of the series) unless noted

**Q.** With `Nc1ccc([As](=O)(O)c2ccc([N+](=O)[O-])cc2)cc1` as the compound, how does the activation read?
**A.** inactive: -0.263%

**Q.** With `C(Cc1nn[nH]n1)Cc1nn[nH]n1` as the compound, how does the activation read?
**A.** inactive: -0.0827%

**Q.** Which activation does the source give for `O=C(OC1CN2CCC1CC2)c1cccc(Cl)c1` (stereo not given) here?
**A.** inactive: -0.917%

**Q.** Which activation does the source give for `O=[N+]([O-])c1ccc(O)c(/C=N/Nc2ccc([N+](=O)[O-])cc2[N+](=O)[O-])c1` here?
**A.** inactive: -36.7%

**Q.** For `CC(=O)NC(SC(=S)N(C)C)C(Cl)(Cl)Cl` (stereo not given), which activation is on record?
**A.** inactive: -13.5%

**Q.** Which activation does the source give for `O=[N+]([O-])c1ncn(CCn2cnc([N+](=O)[O-])n2)n1` here?
**A.** inactive: -1.12%

**Q.** Which activation does the source give for `O=[As](O)(c1ccccc1)c1ccc(O)cc1` here?
**A.** inactive: 2.43%

**Q.** With `C[C@H]1OP(=O)(Oc2ccccc2)[C@H](O)[C@H](O)[C@H]1N=[N+]=[N-]` (stereo not given in full) as the compound, how does the activation read?
**A.** inactive: -1.2%

**Q.** With `O=P(Nc1nc2ccccc2s1)(c1ccccc1)c1ccccc1` as the compound, how does the activation read?
**A.** inactive: -0.694%

**Q.** For `O=P(Nc1ccccn1)(c1ccc(Br)cc1)c1ccc(Br)cc1`, which activation is on record?
**A.** inactive: -5.61%

**Q.** For `CN(C)C1(CNC(=O)c2ccc(Cl)c(S(N)(=O)=O)c2)CCCCC1`, which activation is on record?
**A.** inactive: -6.39%

**Q.** With `O=[N+]([O-])c1cccc(NC2=NCC(CBr)S2)c1` (stereo not given) as the compound, how does the activation read?
**A.** inactive: -5.04%

**Q.** Which activation does the source give for `O=C(O)CNc1ccc([As](=O)(O)O)cc1` here?
**A.** inactive: 0.324%

**Q.** For `CC(C)(C)C(=O)NC(Sc1ccncn1)C(Cl)(Cl)Cl` (stereo not given), which activation is on record?
**A.** inactive: -5.95%

**Q.** With `O=[N+]([O-])c1ncn(CCn2ncnc2[N+](=O)[O-])n1` as the compound, how does the activation read?
**A.** inactive: -2.64%

**Q.** Which activation does the source give for `O=C(Nc1cc([As](=O)(O)O)ccc1O)c1ccccc1` here?
**A.** inactive: -0.198%

**Q.** Which activation does the source give for `CN(C)C(=O)OCCc1n(C)cc[n+]1C` here?
**A.** inactive: 0.77%

**Q.** Which activation does the source give for `CC(C)=N/N=C(\N)N[N+](=O)[O-]` here?
**A.** inactive: 0.0497%

**Q.** For `CC1CCN(C(=O)Oc2c(Cl)cc(Cl)c3cccnc23)CC1`, which activation is on record?
**A.** inactive: 2.24%

**Q.** With `C[N+]1=C2C=CC=CC=C2SC12C([N+](=O)[O-])=CC([N+](=O)[O-])=C[C-]2[N+](=O)[O-]` (stereo not given) as the compound, how does the activation read?
**A.** inactive: -6.72%

**Q.** Which activation does the source give for `Nc1ccc([As](=O)(O)c2ccc(N)cc2)cc1` here?
**A.** inactive: 0.546%

**Q.** Which activation does the source give for `CCN(/C(=N/P(=O)(N1CCOCC1)N1CCOCC1)N1CCOCC1)c1ccc(OC)cc1` here?
**A.** inactive: -5.36%

**Q.** With `O=[N+]([O-])c1cccc2n[nH]nc12` as the compound, how does the activation read?
**A.** inactive: -0.219%

**Q.** With `CC(=O)N1C2C3N(C(C)=O)C1C1N(C(C)=O)C(C(N1C(C)=O)N3C(C)=O)N2C(C)=O` as the compound, how does the activation read?
**A.** inactive: 0.856%

**Q.** Which activation does the source give for `CCc1nc2c(n1)c1c(non1O)c1c2no[n+]1[O-]` here?
**A.** inactive: -8.67%

**Q.** Which activation does the source give for `O=[N+]([O-])c1cc([N+](=O)[O-])c(CCNc2ccccc2)c([N+](=O)[O-])c1` here?
**A.** inactive: 0.157%

**Q.** For `Cc1ccc(NP(=O)(Oc2ccccc2)Oc2ccccc2)nc1`, which activation is on record?
**A.** inactive: 1.45%

**Q.** Which activation does the source give for `COc1ccc(C2=NCC(CBr)S2)cc1` (stereo not given) here?
**A.** inactive: -20.4%

**Q.** For `CC(C)CC(=O)NC(Sc1ccc(Cl)cc1)C(Cl)(Cl)Cl` (stereo not given), which activation is on record?
**A.** inactive: 4.32%

**Q.** Which activation does the source give for `Nc1cc(N)c2nonc2c1[N+](=O)[O-]` here?
**A.** inactive: 0.174%

**Q.** Which activation does the source give for `Cc1c2non([O-])c-2c(C)[n+](=O)[n+]1[O-]` here?
**A.** inactive: 4.8%

**Q.** With `O=C(NC(Sc1ccncn1)C(Cl)(Cl)Cl)c1ccccc1` (stereo not given) as the compound, how does the activation read?
**A.** inactive: -4.14%

**Q.** With `Oc1ccccc1CNc1ccccn1` as the compound, how does the activation read?
**A.** inactive: 18.9%

**Q.** Which activation does the source give for `Cc1ccc(OP(=O)(Nc2nccs2)Oc2ccc(C)cc2)cc1` here?
**A.** inactive: -2.97%

**Q.** For `COc1ccccc1OP(=O)(Nc1ccc(C)cn1)Oc1ccccc1OC`, which activation is on record?
**A.** inactive: -3.02%

**Q.** Which activation does the source give for `Clc1ccc(Cl)c(NC2=NCC(CBr)S2)c1` (stereo not given) here?
**A.** inactive: -2.61%

**Q.** With `CN1CCCC(OC(=O)C(c2ccccc2)c2ccccc2)C1` (stereo not given) as the compound, how does the activation read?
**A.** inactive: -2.64%

**Q.** Which activation does the source give for `NC(=O)c1cc([N+](=O)[O-])cc([N+](=O)[O-])c1N` here?
**A.** inactive: -6.1%

**Q.** With `Cc1ccc(N/C(=N/P(=O)(N2CCOCC2)N2CCOCC2)N2CCOCC2)cc1` as the compound, how does the activation read?
**A.** inactive: -3.34%

**Q.** Which activation does the source give for `CN(C(=O)Cc1ccc(Cl)c(Cl)c1)[C@H]1CCCC[C@H]1N1CCCC1` here?
**A.** inactive: 6.13%

**Q.** For `CCN(N=Nc1nonc1N)c1nonc1N`, which activation is on record?
**A.** inactive: -1.14%

**Q.** For `Nc1cccc2ccc([As](=O)(O)O)cc12`, which activation is on record?
**A.** inactive: -6.6%

**Q.** Which activation does the source give for `O=[N+]([O-])c1cc([N+](=O)[O-])c(CCN2CCOCC2)c([N+](=O)[O-])c1` here?
**A.** inactive: -0.097%

**Q.** With `Cc1ccc(NP(=O)(Oc2ccccc2F)Oc2ccccc2F)nc1` as the compound, how does the activation read?
**A.** inactive: 1.48%

**Q.** With `CN(C(=O)Cc1ccc(Cl)c(Cl)c1)[C@H]1CCCC[C@@H]1N1CCCC1` as the compound, how does the activation read?
**A.** inactive: -9.31% [at 46.1 µM] and inactive: 0.879% [at 46.1 µM]

**Q.** Which activation does the source give for `CCOP(=O)(Nc1ccccc1)OCC` here?
**A.** inactive: 1.01% and inactive: -0.135%

**Q.** Which activation does the source give for `Cc1cc(SC(NC(=O)c2ccc(F)cc2)C(Cl)(Cl)Cl)ncn1` (stereo not given) here?
**A.** inactive: 1.44%

**Q.** For `O=C(O)c1ccccc1[As](=O)(O)O`, which activation is on record?
**A.** inactive: -6.21%

**Q.** For `CC(=O)Nc1ccc([As](=O)(O)O)cc1`, which activation is on record?
**A.** inactive: -1.67%

**Q.** With `O=P(Nc1nc2ccc(Cl)cc2s1)(c1ccccc1)c1ccccc1` as the compound, how does the activation read?
**A.** inactive: -2.77%
